AlphaSeq binding of Ab-14 light chain variants to a spike HR2 peptide

Antigen: PDVDLGDISGINAS, a 14-residue peptide of the SARS-CoV-2 spike HR2 region.

The variants keep the heavy chain, the linker and the frameworks of Ab-14 (scFv order VH, a 15-residue (Gly4Ser)3 linker, VL).
VH: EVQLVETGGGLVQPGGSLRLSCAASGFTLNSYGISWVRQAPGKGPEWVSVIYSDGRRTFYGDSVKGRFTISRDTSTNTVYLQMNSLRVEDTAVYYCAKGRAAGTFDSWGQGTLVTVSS
VL: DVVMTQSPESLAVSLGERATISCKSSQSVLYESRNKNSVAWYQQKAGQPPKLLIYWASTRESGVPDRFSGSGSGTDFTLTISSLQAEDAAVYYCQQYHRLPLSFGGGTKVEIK

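These sequences belong to a second round, designed from the earlier measurements on random variants of the parent. Their group label is 14L_GP_Gibbs (GP: Gaussian process model; Gibbs: Gibbs sampling; a sequence that several methods proposed may carry one label only). The assay is AlphaSeq: two haploid yeast populations carry antibody and antigen on their surface. Pairs that bind mate more often; barcode pairs of the diploids are counted by sequencing. Scores were corrected for input abundance and mapped to Kd with protein pairs of known affinity run in the same pool. Mating was done six times.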

Each variant is given by its three light chain CDRs, as the data file delimits them; those of the parent are KSSQSVLYESRNKNSVA, WASTRES, QQYHRLPLS. Values are log10 of the apparent Kd in nM; lower means stronger binding. "nd" marks a missing value. The strain was present, yet no cells mated with the target were sequenced in that replicate, which points to weak or no binding. A sequence measured in both rounds can read differently, since the two assays cover different ranges.

With KLQMSWLMQSRMKNQVA / HASMRES / QQYHRLPLS the result was 0.44, 0.45, 0.63, 0.33, 0.66, 0.65 (controls 1 of 18).
With KLQQQAEMESRVKNSVA / QASTRES / QQYHRLPLS the result was 0.25, 0.49, 0.10, 0.26, -0.34, -0.11 (controls 0 of 18).
With KFSQLQLYESRNKNSVA / NASCRES / QQYWRLPLS the result was 0.17, 0.19, 0.06, 0.00, 0.00, 0.18 (controls 0 of 18).
With KLSPMDLYESRMSNSVA / MASTRMV / QQYHRLPLS the result was 0.66, 0.37, 0.45, 0.38, 0.61, 0.95 (controls 2 of 18).
With KFSQSVGYQDRNKNSVA / NAQTRMQ / QQYHRLPLS the result was 0.05, 0.30, -0.04, 0.03, -0.08, 0.09 (controls 0 of 18).
With KMSPSQEYEDRNFNSVA / HASVREE / QQYHRLPLS the result was 0.38, 0.38, 0.55, 0.17, 0.51, 0.62 (controls 2 of 18).
With KQDQSDGGEQRNKNSVA / EASTRCE / QQYHRLPLS the result was 0.04, 0.24, 0.14, -0.19, -0.09, 0.34 (controls 1 of 18).
With KLQQSWEYESRNKNNVA / NGSQRED / QQYHRLPLS the result was 0.12, -0.19, -0.06, -0.31, -0.08, 0.16 (controls 0 of 18).
With KLSASQLYQSRNSNAVA / NASTRMS / QQYHRLPLS the result was -0.13, -0.17, -0.11, -0.28, -0.07, -0.03 (controls 2 of 18).
With KLPQEVWYQSRMKNSVA / DASTREQ / QQYHRLPLS the result was 0.03, 0.16, 0.07, 0.08, 0.01, 0.22 (controls 1 of 18).
With KLDFSVLEESRNPNSVA / NASTREE / QDYHRLPLS the result was 0.33, 0.11, 0.01, -0.05, 0.05, 0.47 (controls 0 of 18).
With KLEPSEEEESRNKNSVA / SASTRES / QDYHRLPLS the result was 0.27, -0.09, 0.14, -0.06, -0.22, 0.16 (controls 0 of 18).
With KVSQSAWMESRNFNSVA / NASTREE / QQYHRLPLS the result was 0.48, 0.31, 0.43, 0.18, 0.25, 0.44 (controls 1 of 18).
With KWAGSQLYESRNKNSVA / NASTRES / QQYRRLPLS the result was -0.07, -0.10, -0.27, -0.26, -0.16, 0.27 (controls 1 of 18).
With KFSQSVGYESRNKNSVA / NAQTRMQ / QQYHRLPLS the result was 0.42, -0.15, -0.33, -0.35, 0.45, -0.16 (controls 1 of 18).
With KLQGSFMMLSRNDNSVA / DASTRES / QQYHRLPLS the result was 0.14, -0.22, -0.19, -0.36, -0.16, 0.04 (controls 1 of 18).
With KVSQSMEYQSRNKNNVA / EASTREQ / QSYHRLPLS the result was -0.10, -0.49, -0.45, -0.52, -0.16, -0.23 (controls 1 of 18).
With KVSPSHLYWSRNKNQVA / QASTRET / QQYHRLPLS the result was 0.28, 0.35, -0.02, 0.19, -0.15, 0.22 (controls 1 of 18).
With KLSCSEGMESRNSNSVA / HASKRES / QDYHRLPLS the result was 1.17, 0.89, 0.42, 0.98, 0.92, 1.32 (controls 0 of 18).
With KFEQSWLYESRNVNSVA / QASQRSD / QQYHRLPLS the result was 0.81, 0.49, 0.74, 0.46, 0.25, 0.84 (controls 1 of 18).
With KLSGEVMMLQRNDNSVA / DANTRES / QQYHRLPLS the result was -0.11, -0.09, 0.13, -0.28, -0.49, -0.15 (controls 1 of 18).
With KLMQSMGYESRNFNSVA / QASQRSS / QQYHRLPLS the result was 0.75, 0.89, 0.55, 0.83, 0.67, 0.76 (controls 2 of 18).
With KLSQSVLYESRVKNSVA / EAVQRES / QQYHRLPLS the result was nd, nd, nd, nd, nd, 1.44 (controls 0 of 18).
With KLSASQLYESRASNAVA / QASQRMD / QQYHRLPLS the result was -0.17, -0.39, -0.41, -0.71, -0.61, -0.53 (controls 1 of 18).
With KIHQSDLYEDRNINSVA / SASQRES / QQYHRLPLS the result was 0.15, 0.08, -0.13, -0.26, -0.22, 0.08 (controls 1 of 18).
With KFSQSNPYEQRNKNSVA / EASQREQ / QQYHRLPLS the result was -0.32, -0.36, 0.56, 0.19, 0.01, 0.52 (controls 0 of 18).
With KLSFLGNYEQRNCNSVA / SASTRCS / QQYHRLPLS the result was 0.51, 0.32, 0.14, 0.12, 0.15, 0.37 (controls 2 of 18).
With KMSQSVPYEERNLNNVA / NGSTRCS / QQYHRLPLS the result was -0.02, -0.01, 0.41, 0.13, 0.15, 0.27 (controls 1 of 18).
With KLSKMVMMGSRNKNSVA / SASTREE / QQYHRLPLS the result was 0.40, 0.20, -0.07, 0.00, 0.31, 0.15 (controls 1 of 18).
With KVHQSWLYESRQINSVA / NASQRCS / QQYHRLPLS the result was 0.27, 0.54, 0.32, -0.09, 0.03, 0.49 (controls 0 of 18).
With KLMWSMQYESRNQNSVA / SASYRES / QQYHRLPLS the result was 1.40, 1.04, 1.46, 1.23, 1.39, 1.40 (controls 1 of 18).
With KQSQSGMMESRNQNQVA / QASTRLS / QQYHRLPLS the result was 0.61, 0.41, 0.35, 0.26, 0.28, 0.53 (controls 1 of 18).
With HWSQSVPMGERNKNSVA / MASKRES / QQYHRLPLS the result was nd, 1.55, 2.03, 1.53, 1.32, 2.32 (controls 1 of 18).
With KVSQSKLQGQRNKNSVA / EASTRER / QQYHRLPLS the result was nd, nd, 2.33, nd, nd, 3.33 (controls 0 of 18).
With KVSMSWMQEERNKNSVA / QASQREQ / QQYHRLPLS the result was 0.18, 0.14, 0.11, -0.06, -0.03, 0.62 (controls 1 of 18).
With KLQSLEQYESRWKNNVA / SASTRES / QQYHRLPLS the result was 0.42, 0.30, 0.01, 0.32, 0.13, 0.30 (controls 0 of 18).
With KMSQSWWYESRMKWSVA / NASERES / QQYHRLPLS the result was 1.27, 1.32, 1.29, 1.82, 1.26, 1.39 (controls 0 of 18).
With KLPQSVPYEERCFNSVA / NASTRES / QQYHRLPLS the result was 1.01, 1.08, 0.69, 0.78, 0.85, 0.85 (controls 2 of 18).
With KLSTSVMLESRNVNSVA / SASQREE / QQYHRLPLS the result was 0.31, 0.01, -0.05, -0.09, -0.01, 0.15 (controls 1 of 18).

The 2 strongest on average among those seen in every replicate, once more:

CDR-L1	CDR-L2	CDR-L3	log10 Kd, replicates	signal with controls
KLSASQLYESRASNAVA	QASQRMD	QQYHRLPLS	-0.17, -0.39, -0.41, -0.71, -0.61, -0.53	1/18
KVSQSMEYQSRNKNNVA	EASTREQ	QSYHRLPLS	-0.10, -0.49, -0.45, -0.52, -0.16, -0.23	1/18

Of ten entries with the parent sequence, four were seen in most replicates (averages 0.34 to 2.37), three in one and three in none, so single entries are noisy. In the paper, a design with two or fewer of six values counts as a poor binder. Background: pairings of all light chain designs with three empty control strains gave a value in 4% of cases (median 2.64, 5th percentile 1.59). Values in that range, when seen in few replicates, are hard to tell from nonspecific mating. Also given: how often the same scFv was detected with the empty control strains.

Values reported by Li et al. 2023, doi:10.1038/s41467-023-39022-2 (FLAb copy).